From patent publication US6358947B1 (American Home Products Corporation, priority 1999, dated 2002)

By UniProt entry, the sequences of proteins in these tests, tags left out. Where a name states a change or a piece, a line headed by the entry shows the natural chain unless it says otherwise.
UniProt P10275: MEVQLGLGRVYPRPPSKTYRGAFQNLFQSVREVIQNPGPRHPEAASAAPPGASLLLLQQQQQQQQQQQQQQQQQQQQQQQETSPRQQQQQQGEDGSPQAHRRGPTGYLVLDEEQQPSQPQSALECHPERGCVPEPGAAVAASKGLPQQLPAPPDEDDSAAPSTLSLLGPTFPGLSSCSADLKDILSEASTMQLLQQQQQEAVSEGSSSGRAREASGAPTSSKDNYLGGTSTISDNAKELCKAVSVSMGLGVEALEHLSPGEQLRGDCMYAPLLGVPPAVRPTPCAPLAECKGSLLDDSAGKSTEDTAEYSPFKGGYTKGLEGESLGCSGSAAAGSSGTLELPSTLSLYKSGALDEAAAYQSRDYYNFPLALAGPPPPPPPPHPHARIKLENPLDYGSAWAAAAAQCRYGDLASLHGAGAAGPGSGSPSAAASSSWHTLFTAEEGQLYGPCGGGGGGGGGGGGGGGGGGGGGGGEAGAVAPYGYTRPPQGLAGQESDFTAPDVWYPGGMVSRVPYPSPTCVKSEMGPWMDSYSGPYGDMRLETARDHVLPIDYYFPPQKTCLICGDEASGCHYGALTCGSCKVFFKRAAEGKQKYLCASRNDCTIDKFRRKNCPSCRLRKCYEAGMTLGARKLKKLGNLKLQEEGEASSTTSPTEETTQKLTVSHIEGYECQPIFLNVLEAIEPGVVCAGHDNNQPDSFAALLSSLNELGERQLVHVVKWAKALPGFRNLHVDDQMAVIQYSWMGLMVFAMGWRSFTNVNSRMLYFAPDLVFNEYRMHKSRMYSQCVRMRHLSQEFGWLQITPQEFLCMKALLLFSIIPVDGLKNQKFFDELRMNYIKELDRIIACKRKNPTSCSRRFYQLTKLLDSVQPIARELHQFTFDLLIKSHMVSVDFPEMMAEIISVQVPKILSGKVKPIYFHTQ

Assays:
human PR [1] = target: T1, human PR (Homo sapiens, UniProt P06401); assay: Cotransfection assay, PR antagonist, CV-1 cells; details: read-out: PR Potency Antag; Table 2
T1 sequence (P06401 1-933): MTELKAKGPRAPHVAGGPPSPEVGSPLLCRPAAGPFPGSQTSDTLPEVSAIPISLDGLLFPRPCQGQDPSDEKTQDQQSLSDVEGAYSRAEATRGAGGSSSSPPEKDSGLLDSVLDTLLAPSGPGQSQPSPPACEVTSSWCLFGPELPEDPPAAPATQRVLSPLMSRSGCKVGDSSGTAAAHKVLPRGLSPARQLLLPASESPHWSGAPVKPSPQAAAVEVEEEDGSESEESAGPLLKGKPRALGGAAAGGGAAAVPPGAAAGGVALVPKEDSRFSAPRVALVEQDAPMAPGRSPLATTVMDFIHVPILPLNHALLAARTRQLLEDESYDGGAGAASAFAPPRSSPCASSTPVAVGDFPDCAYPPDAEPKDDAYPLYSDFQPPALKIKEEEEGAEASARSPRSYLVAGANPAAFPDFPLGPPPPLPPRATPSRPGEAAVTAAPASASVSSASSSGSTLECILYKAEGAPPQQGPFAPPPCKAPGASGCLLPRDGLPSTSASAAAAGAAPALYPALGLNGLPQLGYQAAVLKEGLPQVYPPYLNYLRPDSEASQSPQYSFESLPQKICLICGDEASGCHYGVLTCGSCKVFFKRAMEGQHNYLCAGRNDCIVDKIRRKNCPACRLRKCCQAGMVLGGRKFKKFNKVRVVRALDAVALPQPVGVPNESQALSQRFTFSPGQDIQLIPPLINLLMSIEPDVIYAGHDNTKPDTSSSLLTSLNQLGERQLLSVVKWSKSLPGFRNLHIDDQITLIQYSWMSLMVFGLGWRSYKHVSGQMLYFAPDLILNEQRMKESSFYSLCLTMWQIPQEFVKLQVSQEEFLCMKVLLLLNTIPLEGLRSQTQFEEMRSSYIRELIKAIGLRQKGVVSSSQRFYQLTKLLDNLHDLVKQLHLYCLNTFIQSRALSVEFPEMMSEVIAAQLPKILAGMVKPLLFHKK

hGR = target: T2, hGR (Homo sapiens, UniProt P04150); assay: Cotransfection assay, GR antagonist; details: read-out: GR Potency Antag
T2 sequence (P04150 1-777): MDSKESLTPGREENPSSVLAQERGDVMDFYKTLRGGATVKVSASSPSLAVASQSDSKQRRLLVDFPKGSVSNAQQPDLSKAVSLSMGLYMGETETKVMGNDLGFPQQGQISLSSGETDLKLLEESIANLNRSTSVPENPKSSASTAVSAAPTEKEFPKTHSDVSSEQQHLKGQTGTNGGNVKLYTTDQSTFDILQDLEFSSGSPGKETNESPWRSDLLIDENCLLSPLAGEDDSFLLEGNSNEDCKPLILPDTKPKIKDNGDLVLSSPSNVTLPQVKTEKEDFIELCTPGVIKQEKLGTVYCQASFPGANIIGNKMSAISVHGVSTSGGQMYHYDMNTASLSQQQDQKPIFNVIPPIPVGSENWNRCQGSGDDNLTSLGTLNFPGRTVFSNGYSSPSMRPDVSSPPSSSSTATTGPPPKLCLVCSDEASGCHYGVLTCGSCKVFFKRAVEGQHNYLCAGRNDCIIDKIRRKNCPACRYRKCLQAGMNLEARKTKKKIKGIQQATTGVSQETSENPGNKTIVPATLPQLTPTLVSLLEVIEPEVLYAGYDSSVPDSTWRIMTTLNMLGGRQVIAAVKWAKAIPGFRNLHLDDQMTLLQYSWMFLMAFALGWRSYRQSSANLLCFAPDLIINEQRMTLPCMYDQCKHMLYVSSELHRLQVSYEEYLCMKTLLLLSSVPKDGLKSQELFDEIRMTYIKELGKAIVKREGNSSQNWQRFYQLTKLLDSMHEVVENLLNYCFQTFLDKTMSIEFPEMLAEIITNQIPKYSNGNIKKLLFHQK

human PR [2] = target: T1, human PR; assay: Cotransfection assay, PR agonist, CV-1 cells; details: read-out: PR Potency Agon; Table 2
hAR [3] = target: T3, hAR (Homo sapiens, UniProt P10275); assay: Cotransfection assay, AR antagonist; details: read-out: AR Potency Antag
hMR = target: T4, hMR (Homo sapiens, UniProt P08235); assay: Cotransfection assay, MR antagonist; details: read-out: MR Potency Antag
T4 sequence (P08235 1-984): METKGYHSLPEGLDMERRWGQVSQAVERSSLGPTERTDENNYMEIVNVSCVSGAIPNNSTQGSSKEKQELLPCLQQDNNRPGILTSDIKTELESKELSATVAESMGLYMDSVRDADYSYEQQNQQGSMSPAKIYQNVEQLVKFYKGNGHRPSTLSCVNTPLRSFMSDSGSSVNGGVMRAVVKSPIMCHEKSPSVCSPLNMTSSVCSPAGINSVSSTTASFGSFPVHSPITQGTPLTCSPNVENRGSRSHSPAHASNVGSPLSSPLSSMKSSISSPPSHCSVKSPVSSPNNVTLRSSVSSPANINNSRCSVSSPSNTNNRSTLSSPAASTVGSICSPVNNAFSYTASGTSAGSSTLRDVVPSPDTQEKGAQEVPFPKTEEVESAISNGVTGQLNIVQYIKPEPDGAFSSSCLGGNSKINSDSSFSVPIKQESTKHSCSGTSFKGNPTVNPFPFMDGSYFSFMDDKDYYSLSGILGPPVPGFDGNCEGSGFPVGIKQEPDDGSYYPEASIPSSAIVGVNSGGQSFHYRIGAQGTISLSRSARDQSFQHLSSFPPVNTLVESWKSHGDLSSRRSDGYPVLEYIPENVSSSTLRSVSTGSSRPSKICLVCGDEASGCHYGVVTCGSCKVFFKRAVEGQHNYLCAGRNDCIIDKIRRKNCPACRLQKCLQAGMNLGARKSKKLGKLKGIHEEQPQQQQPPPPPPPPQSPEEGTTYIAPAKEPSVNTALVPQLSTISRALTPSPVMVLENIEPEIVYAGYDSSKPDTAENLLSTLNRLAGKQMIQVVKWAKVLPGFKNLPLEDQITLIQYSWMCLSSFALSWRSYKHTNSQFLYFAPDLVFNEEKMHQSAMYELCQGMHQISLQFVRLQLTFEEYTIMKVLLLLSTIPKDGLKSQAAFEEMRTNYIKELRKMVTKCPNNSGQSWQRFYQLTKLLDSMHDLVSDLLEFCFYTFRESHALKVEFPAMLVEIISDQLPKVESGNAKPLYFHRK

hAR [4] = target: T3, hAR; assay: Cotransfection assay, AR agonist; details: read-out: AR Potency Agon

CCCCN(C)C(=O)CCCCCCCCCC[C@@H]1Cc2cc(O)ccc2[C@H]2CC[C@]3(C)[C@@H](O)CC[C@H]3[C@H]12 [ICI 164, reference compound]
> 10 µM: IC50 (human PR [1]) | IC50 (hGR) | EC50 (human PR [2]) | IC50 (hAR [3]) | IC50 (hMR) | EC50 (hAR [4])
